The record followed here is BindingDB's records for doi:10.1016/s0960-894x(98)00065-1 (University of Arizona, 1999).

Structures are written as SMILES.

The assay is described as follows: Compound was tested for binding affinity towards Opioid receptor delta 1 in guinea pig brain homogenates using [3H][p-Cl-Phe]-DPDPE as radioligand.

Turning to `C[C@@H](NC(=O)[C@@H](N)Cc1ccc(O)cc1)C(=O)NCC(=O)N[C@@H](Cc1ccccc1)C(=O)NNC(=O)[C@H](Cc1ccccc1)NC(=O)CNC(=O)[C@@H](C)NC(=O)[C@@H](N)Cc1ccc(O)cc1` [2-Amino-N-((S)-1-{[(2-{N'-[2-(2-{(S)-2-[2-amino-3-(4-hydroxy-phenyl)-propionylamino]-propionylamino}-acetylamino)-3-phenyl-propionyl]-hydrazino}-1-benzyl-2-oxo-ethylcarbamoyl)-methyl]-carbamoyl}-ethyl)-3-(4-hydroxy-phenyl)-propionamide], the inhibitory constant (Ki) turned out to be 5.2 nM.
